These results are taken from ChEMBL document CHEMBL3297697, “Property- and structure-guided discovery of a tetrahydroindazole series of interleukin-2 inducible T-cell kinase inhibitors” (J Med Chem, 2014).

The structures appear in SMILES notation. pIC50: −log10 of the molar value.

The experiment concerns the target T1, Tyrosine-protein kinase ITK/TSK (Homo sapiens, UniProt Q08881).
T1 sequence (Q08881 whole entry): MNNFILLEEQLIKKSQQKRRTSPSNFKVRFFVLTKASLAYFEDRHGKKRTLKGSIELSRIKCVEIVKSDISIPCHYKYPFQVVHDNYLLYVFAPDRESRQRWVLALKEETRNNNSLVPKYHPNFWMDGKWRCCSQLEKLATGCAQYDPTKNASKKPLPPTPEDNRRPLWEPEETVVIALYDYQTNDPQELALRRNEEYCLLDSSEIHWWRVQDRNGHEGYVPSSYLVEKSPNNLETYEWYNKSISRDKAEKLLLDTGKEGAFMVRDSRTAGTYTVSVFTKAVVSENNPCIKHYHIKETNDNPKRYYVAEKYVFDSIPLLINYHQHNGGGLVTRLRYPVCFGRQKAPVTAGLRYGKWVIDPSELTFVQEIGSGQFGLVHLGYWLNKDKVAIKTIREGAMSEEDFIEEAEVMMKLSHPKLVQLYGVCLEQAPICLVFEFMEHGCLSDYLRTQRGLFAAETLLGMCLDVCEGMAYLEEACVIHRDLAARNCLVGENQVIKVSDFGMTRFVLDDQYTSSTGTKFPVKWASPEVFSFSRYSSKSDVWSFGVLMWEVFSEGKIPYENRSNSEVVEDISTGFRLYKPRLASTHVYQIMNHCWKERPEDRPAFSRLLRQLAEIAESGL

Turning to `Cc1cccc([C@H](CCN(C)C)n2cc(NC(=O)c3n[nH]c4c3CCC(C)(C)C4)cn2)c1`, the pIC50 is 7.33.

Broadly, the pIC50 is the IC50 on a negative log10 scale, so that one unit is a factor of ten. Low values mean a high IC50, high ones a low IC50.
